Data on one compound can be found in patent US20230250060A1 (IFM Due, Inc., priority 2022, published 2023).

The chains behind the UniProt entries cited, without tags or fusion partners.
UniProt Q86WV6, whole entry R71H/G230A/H232R/R293Q: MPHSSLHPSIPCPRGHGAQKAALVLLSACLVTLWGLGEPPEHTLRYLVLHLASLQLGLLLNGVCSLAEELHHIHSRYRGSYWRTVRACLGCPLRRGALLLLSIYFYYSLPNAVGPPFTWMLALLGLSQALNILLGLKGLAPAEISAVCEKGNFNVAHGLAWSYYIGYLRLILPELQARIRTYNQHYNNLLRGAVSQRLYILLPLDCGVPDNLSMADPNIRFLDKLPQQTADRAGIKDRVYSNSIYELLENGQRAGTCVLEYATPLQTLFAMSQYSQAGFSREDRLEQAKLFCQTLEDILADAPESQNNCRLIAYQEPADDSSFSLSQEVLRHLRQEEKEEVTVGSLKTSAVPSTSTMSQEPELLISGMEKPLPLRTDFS

In the experiment the target is STING (Homo sapiens, UniProt Q86WV6, G230A/H232R/R293Q/R71H). The experiment can be described thus: STING reporter assay (luciferase) in THP1-Dual KO-IFNAR2 cells stimulated with 2′3′cGAMP. Conditions: read-out: Pharmaron, THP1_IFNAR2 STING 24 h Luci Normalized: GeoMean EC50, 2′3′cGAMP 15 μM final, luciferase reporter activity. On the procedure: STING pathway activation by the compounds described herein was measured using TTIP1-Dual™ cells (KO-IFNAR2).
TTIP1-Dual™ KO-IFNAR2 Cells (obtained from invivogen) were maintained in RPMI, 10% FCS, 5 ml P/S, 2 mM L-glut, 10 mM Hepes, and 1 mM sodium pyruvate. Compounds were spotted in empty 384 well tissue culture plates (Greiner 781182) by Echo for a final concentration of 0.0017-100 μM. Cells were plated into the TC plates at 40 μL per well, 2×10E6 cells/mL. For activation with STING ligand, 2′3′cGAMP (MW 718.38, obtained from Invivogen), was prepared in Optimem media.
The following solutions were prepared for each 1×384 plate: • Solution A: 2 mL Optimem with one of the following stimuli: • […] • Solution B: 2 mL Optimem with […] Lipofectamine 2000→Incubate 5 min at RT
2 mL of solution A and 2 ml Solution B was mixed and incubated for 20 min at room temperature (RT). […] Luciferase reporter activity was then measured. EC50 values were calculated by using standard methods known in the art.
Luciferase reporter assay: 10 μL of supernatant from the assay was transferred to white 384-plate with flat bottom and squared wells. […] Luminescence was measured on a Platereader (e.g., Spectramax I3X (Molecular Devices GF3637001)).
Luciferase reporter activity was then measured. EC50 values were calculated by using standard methods known in the art.

One may read the EC50 as the concentration at which the effect is half-maximal.

The structures appear in SMILES notation.

Take `O=C(Nc1c[nH]c2ccc(OCCc3ccc(C(F)(F)F)cc3)cc12)C1CC2(CC2)C1`: the EC50 lay within 200 to 1000 nM.
